# Antibody variant affinities, Ab-14 heavy chain, assay B

All variants were tested on one target, the spike HR2 peptide PDVDLGDISGINAS (SARS-CoV-2).

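Phage display of a naive human antibody library on the peptide gave the parent. Designed CDR sequences, proposed from the first random library and measured here. Group labels follow the data file (Ctrl: baseline library sampled from a position-specific scoring matrix, with some repeated check sequences; Rand: our label for a block that the file lists under HC and that is probably the random mutants of the ten best first-round binders; En: ensemble of fine-tuned language models; GP: Gaussian process model; GPLM: also part of the Gaussian process libraries; HC: hill climbing; Gen: genetic algorithm; Gibbs: Gibbs sampling; a sequence that several methods proposed may carry one label only). AlphaSeq pools MATa yeast showing the antibodies with MATalpha yeast showing the peptide. The frequency of each diploid, read from paired DNA barcodes, reflects how well the two displayed proteins bind. Read counts were normalised to the haploid input and turned into Kd by a linear fit to BCL2-family pairs of known affinity, for each replicate. There are six technical replicates.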

Parent scFv Ab-14: VH joined to VL by a 15-residue (Gly4Ser)3 linker. Changes lie in the heavy chain CDRs alone.
VH: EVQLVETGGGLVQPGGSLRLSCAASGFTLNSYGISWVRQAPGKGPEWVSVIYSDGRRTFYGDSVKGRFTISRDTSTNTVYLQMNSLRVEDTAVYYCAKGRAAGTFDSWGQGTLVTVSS
VL: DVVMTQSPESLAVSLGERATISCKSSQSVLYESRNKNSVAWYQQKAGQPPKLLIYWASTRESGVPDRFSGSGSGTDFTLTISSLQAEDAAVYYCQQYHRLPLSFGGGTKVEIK

Each variant is given by its three heavy chain CDRs, as the data file delimits them; those of the parent are GFTLNSYGIS, VIYSDGRRTFYGDSVK, GRAAGTFDS.
Values are log10 of the apparent Kd in nM; lower means stronger binding.
The mean shown is taken over the replicates in which the pair was detected.
"no signal" marks a missing value. The strain was present, yet no cells mated with the target were sequenced in any replicate, which points to weak or no binding.
Where one sequence has several entries in the source, the replicates are pooled.

mean log10 Kd (nM),detected,signal with controls,CDR-H1,CDR-H2,CDR-H3,group
-0.58,6 of 6,0 of 18,GFDLEDYGIS,VIYADGKRTAYADSVK,GETAGTFDV,En_Gen
1.39,5 of 6,1 of 18,GFNLNSYGIS,VIYSDGRRTFYKDSVK,GKQAGTFDS,GP_Gen
1.21,6 of 6,0 of 18,GFELNSYGIS,VIYSDGRRTFYGDKVK,GKTAGTFDS,GP_Gibbs
no signal,0 of 6,1 of 18,KFNLNSYGIS,VIYSDGRRTFYHDSVK,GRTAGTFDS,GP_Gibbs
0.85,6 of 6,2 of 18,GFTLNSYGIS,VIYSDGRRTAYNDSVK,GRVAGTFDS,Ctrl
-0.23,6 of 6,0 of 18,GFDLNEYGIS,VIYADGVRTAYADSVK,GETAGTFDI,En_Gen
2.05,2 of 6,0 of 18,GFTLNSYGIS,VIYSDGVRTFYEDSVK,GRFAGTFDS,Ctrl
-0.14,6 of 6,0 of 18,GFDLEDYGIS,VIYADGRRTAYSDSVK,GEVAGTFDV,En_Gen
no signal,0 of 6,0 of 18,GFALNSYGIS,VIYSDGRRTFYGDAVK,GQAEDTPDW,Ctrl
no signal,0 of 6,0 of 18,GFTLNEYGIS,VIYSDGRRTFYGESVK,GRAAVTFDQ,GPLM_HC
no signal,0 of 6,0 of 18,GATLNEYGIS,VIYSDGRRTFYGDSVK,GRAAVTFDQ,Rand
1.61,5 of 6,0 of 18,GFTLNKYGIS,VIYSDGRRTFYEDSVK,GRAGGTFDS,Rand
no signal,0 of 6,0 of 18,GFTLNSYGIS,VIYSDGMRTFYGDSVK,GEAAGTFES,Ctrl
no signal,0 of 6,0 of 18,GDKLEDYGIS,VIYADGRRSAYVENVK,GEYAGYFDV,En_Gibbs
0.08,6 of 6,2 of 18,GFDLNAYGIS,VIYSDGRRTFYGDQVK,GRTAGTFDS,GP_Gen
1.88,4 of 6,0 of 18,GFNLNSYGIS,VIYSDGVRTFYGDSVK,GRAAGTFDQ,Ctrl
2.81,2 of 6,1 of 18,GFSLNSYGIS,VIYSDGRRTFYGDSVK,GRSAGTFDQ,GP_Gibbs
-0.46,6 of 6,0 of 18,GFDLDEYGIS,VIYADGVRTAYSDSVK,GNVAGTFDT,En_Gen
no signal,0 of 6,0 of 18,GFTLNSYGIS,VIYSDGRRTFYTDSVK,GQFAGKFDS,GP_HC
no signal,0 of 6,0 of 18,GITLNSYGIS,VIYSDGRRTFYGGKVK,GRAAGTFDS,Ctrl
-0.39,6 of 6,0 of 18,GFDLNEYGIS,VIYADGRRTFYSDSVK,GEAAGTFDD,En_HC
1.18,1 of 6,0 of 18,GFPLNDYGIS,VIYSDGRRTFYGDQVK,GGAAGTFDS,Ctrl
-0.52,6 of 6,0 of 18,GFSLNSYGIS,VIYADGRRTFYGDSVK,GRAAGTFDT,GPLM_Gen
2.70,1 of 6,0 of 18,GQDLQEYGVS,VIYADGMRTAYADSFK,GQSLGNIVQ,En_Gibbs
1.26,6 of 6,0 of 18,GFDLNEYGIS,VIYADGRRTFYADSVK,GEGAGTFDI,En_HC
1.44,6 of 6,0 of 18,GFWLNDYGIS,VIYSDGRRTFYADSVK,GRAAGTFDV,GP_HC
-0.51,6 of 6,0 of 18,GFDLNEYGIS,VIYADGMRTAYVDDVK,GNQAGTFDV,En_Gen
-0.45,6 of 6,0 of 18,GFDLNEYGIS,VIYADGMRKAYADSVK,GENAGTFDL,En_Gen
no signal,0 of 6,0 of 18,GFTLEPYGIS,VIYSDGRRTFYGDSYK,GRAAVFFDQ,Rand
-0.67,6 of 6,1 of 18,GFDLNEYGIS,VIYADGRRTFYADSVK,GQLAGTFDA,En_HC
1.56,5 of 6,1 of 18,DFTLESYGIS,VIYSDGRRTFYGDSVK,GRVAGTFDS,Ctrl
-0.06,6 of 6,1 of 18,GFDLNSYGIS,VIYSDGRRTFYDDSVK,GKLAGTFDS,GP_HC
0.43,6 of 6,0 of 18,GFSLNSYGIS,VIYSDGRRTFYGDAVK,GRAAGTFDS,GP_Gibbs
-0.38,6 of 6,0 of 18,GFDLDEYGIS,VIYADGMRTVYADSVK,GETAGTFDL,En_Gen
-0.49,6 of 6,0 of 18,GFNLDEYGIS,VIYADGMRTAYSDSVK,GENAGTFDV,En_Gen
1.48,2 of 6,0 of 18,GFQLNEYGIS,VIYSDGRRTFYSDSVK,GRAAGTFDS,GPLM_Gibbs
no signal,0 of 6,0 of 18,GETLNSYGIS,VIYSDGRRTFYKDSVK,GRACGTFDS,Ctrl
1.28,6 of 6,1 of 18,GFELNMYGIS,VIYSDGRRTFYVDSVK,GRQAGTFDT,GP_Gibbs
0.80,6 of 6,1 of 18,GFDLNSYGIS,VIYSDGRRTFYGDSVK,GEAAGTFDN,GPLM_Gibbs
2.02,6 of 6,0 of 18,GFDLNSYGIS,VIYSDGRRTFYGDPVK,GQTAGTFDS,GP_Gen
1.07,1 of 6,0 of 18,GFTLNEYGIS,VIYSDGYRTMYGDSVK,GRAAGTSDS,Ctrl
-0.06,6 of 6,0 of 18,GFDLNEYGIS,VIYADGKRTAYADSVK,GNVAGTFDI,En_Gen
no signal,0 of 6,0 of 18,GQDLNEYGVS,VIYADGQRVQYAEDVK,GGYSGAVDF,En_Gibbs
no signal,0 of 6,0 of 18,GFTLNSYGIH,VIYSDGRRTFYIDSVK,VRTAGTFDS,Ctrl
0.18,6 of 6,0 of 18,GFTLNQYGIS,VIYSDGMRTFYSDSVK,GRTAGTFDS,GPLM_HC
no signal,0 of 6,0 of 18,GFTLNSYGIS,VIYADGRRTFYGDSVK,GRAAGEFDS,Ctrl
0.61,12 of 12,0 of 36,GFSLNSYGIS,VIYSDGRRTFYGDSVK,GMAAGTFDS,Ctrl+GPLM_Gen
no signal,0 of 6,0 of 18,GFDLEEMGVS,VIYADGIRFAYAQKVK,GQAAGAFDL,En_Gibbs
-0.43,6 of 6,0 of 18,GFDLNEYGIS,VIYADGSRTFYADSVK,GEVAGTFDQ,En_HC
0.41,6 of 6,0 of 18,GFDLNEYGIS,VIYADGQRTVYADSVK,GNVAGTFDQ,En_Gen
no signal,0 of 6,2 of 18,GFKIDEYGIS,VIYADGHRTAYSEQVK,GVNMGFMVE,En_Gibbs
-0.18,6 of 6,0 of 18,GFDLDEYGIS,VIYADGMRTAYSDSVK,GEQAGTFDV,En_Gen
no signal,0 of 6,1 of 18,GFNLDEYGIS,VIYADGRRTAYQDSVK,GEVAGTFDF,En_HC
1.36,2 of 6,0 of 18,GFELNSYGIS,VIYSDGRRTFYGDSVK,GQAAGTFDK,GPLM_Gibbs
no signal,0 of 6,0 of 18,GFQLNEYGIS,VIYADGKRSEYADSVK,GGINSSFSV,En_Gibbs
no signal,0 of 6,0 of 18,GFTLNEYGIS,VIYSDGRRTFYIDSVK,GRAAGTFIS,GP_HC
0.39,6 of 6,0 of 18,GFELNSYGIS,VIYSDGRRTFYGDSVK,GRNAGTFDS,GPLM_Gen
0.19,6 of 6,0 of 18,GFTLNSYGIS,VIYSDGRRTFYGDSVK,GNTAGTFDV,GP_Gibbs
0.21,2 of 6,0 of 18,GFSLNSYGIS,VIYSDGRRTFYQDRVK,GRTAGTFDS,GP_Gibbs
-0.11,6 of 6,0 of 18,GFDLNAYGIS,VIYSDGRRTMYGDSVK,GRTAGTFDS,GP_Gen
no signal,0 of 6,0 of 18,GFELDEYGIS,VIYADGKRKAYDDAVK,GFTVGVKLI,En_Gibbs
no signal,0 of 6,0 of 18,GFTLNSYGIS,VIYSDGRRTFYSDSVK,GNAAGIFDT,GP_HC
2.53,1 of 6,0 of 18,GYDLVEYGIS,VIYADGQRTAYADTVK,GNHGGIIDV,En_Gibbs
0.89,1 of 6,0 of 18,GFNLNSYGIS,VIYADMRRTFYGDSVK,GQAAGTFDS,GP_HC
2.48,5 of 6,1 of 18,GMTLNSYGIS,VIYSDGRRTFYSDSVK,GRAMGTFDS,Rand
-0.27,6 of 6,0 of 18,GFDLNEYGIS,VIYADGMRTFYADSVK,GNTAGTFDL,En_Gen
1.45,6 of 6,0 of 18,GFDLNEYGIS,VIYADGMRTQYIDSVK,GNQAGTFDS,En_HC
3.03,1 of 6,0 of 18,GFDIQDYGIS,VIYADGSRTAYTNSVK,GLTGAFAGL,En_Gibbs
0.69,6 of 6,0 of 18,GFELNSYGIS,VIYSDGRRTFYADMVK,GRTAGTFDS,GP_Gen
-0.64,6 of 6,0 of 18,GFDLNEYGIS,VIYADGVRTAYQDSVK,GNVAGTFDV,En_Gen
-0.50,6 of 6,0 of 18,GFDLDEYGIS,VIYADGRRTFYADSVK,GELAGTFDI,En_HC
0.48,6 of 6,1 of 18,GFDLNEYGIS,VIYADGRRTAYKDSVK,GTDAGTFDQ,En_HC
no signal,0 of 6,0 of 18,DFTLNEYGIS,VIYSDGRRTFYGDSVK,GRAAVTFDV,GP_HC
no signal,0 of 6,0 of 18,EFNLEEFGIS,VIYADGKRTAYVPNVK,GHLGGHFDM,En_Gibbs
-0.19,6 of 6,0 of 18,GFSLNEYGIS,VIYSDGRRTFYGEHVK,GRTAGTFDS,GP_Gibbs

The 8 strongest on average among those seen in every replicate, once more:

CDR-H1,CDR-H2,CDR-H3,group,mean log10 Kd (nM),detected,signal with controls
GFDLNEYGIS,VIYADGRRTFYADSVK,GQLAGTFDA,En_HC,-0.67,6 of 6,1 of 18
GFDLNEYGIS,VIYADGVRTAYQDSVK,GNVAGTFDV,En_Gen,-0.64,6 of 6,0 of 18
GFDLEDYGIS,VIYADGKRTAYADSVK,GETAGTFDV,En_Gen,-0.58,6 of 6,0 of 18
GFSLNSYGIS,VIYADGRRTFYGDSVK,GRAAGTFDT,GPLM_Gen,-0.52,6 of 6,0 of 18
GFDLNEYGIS,VIYADGMRTAYVDDVK,GNQAGTFDV,En_Gen,-0.51,6 of 6,0 of 18
GFDLDEYGIS,VIYADGRRTFYADSVK,GELAGTFDI,En_HC,-0.50,6 of 6,0 of 18
GFNLDEYGIS,VIYADGMRTAYSDSVK,GENAGTFDV,En_Gen,-0.49,6 of 6,0 of 18
GFDLDEYGIS,VIYADGVRTAYSDSVK,GNVAGTFDT,En_Gen,-0.46,6 of 6,0 of 18

A sequence measured in both rounds can read differently, since the two assays cover different ranges.
The authors averaged sequences with at least three values out of six and counted those with two or fewer as poor binders.
The parent sequence was in this pool as ten entries: three were never detected, three once, and four in most replicates, with averages from 0.34 to 2.37.
Three control strains display no target. For all heavy chain designs, 1% of the pairings with them gave a signal, with a median of 2.08 and one signal in twenty below 0.84, so weak values seen in few replicates may be background. The control count says in how many pairings with the empty strains this scFv gave a signal.

The measurements come from Li et al. 2023 (doi:10.1038/s41467-023-39022-2) through the FLAb antibody collection.